{"source": "patent US20140323414A1", "about": "(priority 2011, published 2014)", "system": "live anesthetized rats", "conditions": "rat, in vivo", "data": [{"smiles": "CNCC(O)c1ccc(O)c(O)c1", "note": "(centres unmarked) [Adrenalin]", "values": [{"measurement": "arterial blood pressure (ABP)", "value": "increased"}, {"measurement": "heart contractility (LvP)", "value": 200, "unit": "mmHg"}]}]}
